Experimental data: patent US20230085686A1, “Multicompartement hydrogel fibre their preparation and uses thereof” (Association For The Advancement Of Tissue Engineering And …, priority 2020, published 2023)

Conditions: dexamethasone-FITC in oil droplets inside a GG hydrogel fibre, in PBS

With Dexamethasone-FITC the “period of gradual release from the fibre” value was “around 12 h”.
